Membrane permeability of cyclic peptides

Collected by the curators of CycPeptMPDB (Li et al. 2023) from Townsend et al. 2020, doi:10.26434/chemrxiv.13335941.v1.

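The data file gives no further conditions (lipid, pH, time, direction or concentration), and values from different papers need not be comparable. The list need not hold all peptides of the study. Entries at the database's floor value (log10 P of -10) are not listed.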

PAMPA is the parallel artificial membrane permeability assay, which has no cells and reads passive diffusion. P is given in units of 10^-6 cm/s (from log10 values with two decimals); larger means faster passage.

For CCCN1CC(=O)N(C)[C@H](CC(C)C)C(=O)N(C)[C@H](CC(C)C)C(=O)N2CCC[C@@H]2C(=O)N(C)[C@H](CC(C)C)C(=O)N[C@@H](Cc2ccccc2)C1=O the data give PAMPA 5.2 × 10^-6 cm/s. Listed for CC(C)C[C@@H]1NC(=O)[C@@H](C)N(C)C(=O)[C@H]2CCCN2C(=O)[C@H](Cc2ccccc2)NC(=O)[C@@H](CC(C)C)NC(=O)[C@H]2CCCN2C(=O)CN(Cc2ccccc2)C1=O: PAMPA 0.71 × 10^-6 cm/s. The entry for CC(C)C[C@@H]1NC(=O)[C@@H](C)N(C)C(=O)[C@H](Cc2ccccc2)NC(=O)[C@H](CC(C)C)N(C)C(=O)[C@@H]2CCCN2C(=O)[C@H](CC(C)C)NC1=O lists PAMPA 4 × 10^-6 cm/s. The entry for CC(C)C[C@@H]1NC(=O)[C@@H]2CCCN2C(=O)[C@@H](CC(C)C)N(C)C(=O)[C@H](CC(C)C)N(C)C(=O)[C@@H](C)N(C)C(=O)[C@H]2CCCN2C(=O)[C@H](Cc2ccccc2)NC1=O lists PAMPA 0.83 × 10^-6 cm/s. CC(C)C[C@H]1NC(=O)C[C@H](Cc2ccccc2)NC(=O)[C@@H]2CCCN2C(=O)[C@H](Cc2ccccc2)NC(=O)[C@@H](CC(C)C)NC(=O)[C@H]2CCCN2C(=O)C[C@H](Cc2ccccc2)NC1=O is reported with PAMPA 1.9 × 10^-6 cm/s. The entry for CC(C)C[C@@H]1C(=O)N(Cc2ccccc2)CC(=O)N2CCC[C@H]2C(=O)N(Cc2ccccc2)CC(=O)N[C@@H](Cc2ccccc2)C(=O)N(C)[C@H](C)C(=O)N1C lists PAMPA 3.8 × 10^-6 cm/s. Listed for CC(C)C[C@H]1NC(=O)[C@H]2CCCN2C(=O)C[C@H](Cc2ccccc2)NC(=O)[C@H](CC(C)C)N(C)C(=O)[C@H](C)N(C)C(=O)[C@H]2CCCN2C(=O)[C@H](Cc2ccccc2)NC1=O: PAMPA 0.69 × 10^-6 cm/s.

Listed for CC(C)C[C@@H]1NC(=O)C[C@H](Cc2ccccc2)NC(=O)[C@H]2CCCN2C(=O)[C@H](Cc2ccccc2)NC(=O)[C@H](CC(C)C)N(C)C(=O)[C@@H]2CCCN2C(=O)[C@H](CC(C)C)N(C)C1=O: PAMPA 5.6 × 10^-6 cm/s. For CC(C)C[C@@H]1NC(=O)[C@@H](C)NC(=O)[C@H]2CCCN2C(=O)[C@H](Cc2ccccc2)NC(=O)[C@H](CC(C)C)N(C)C(=O)[C@H]2CCCN2C(=O)CN(Cc2ccccc2)C1=O the data give PAMPA 0.76 × 10^-6 cm/s. CC(C)C[C@H]1C(=O)N[C@@H](Cc2ccccc2)CC(=O)N2CCC[C@H]2C(=O)N(C)[C@@H](CC(C)C)C(=O)N[C@@H](Cc2ccccc2)C(=O)N(C)[C@H](C)C(=O)N1C is reported with PAMPA 7.9 × 10^-6 cm/s. For CC(C)C[C@H]1C(=O)N(C)[C@@H](CC(C)C)C(=O)N2CCC[C@H]2C(=O)N(Cc2ccccc2)CC(=O)N[C@@H](Cc2ccccc2)C(=O)N2CCC[C@H]2C(=O)N(C)[C@@H](C)C(=O)N1C the data give PAMPA 8.9 × 10^-6 cm/s. For CC(C)C[C@@H]1NC(=O)[C@@H](C)N(C)C(=O)[C@H]2CCCN2C(=O)[C@H](Cc2ccccc2)NC(=O)[C@@H](CC(C)C)N(C)C(=O)[C@H]2CCCN2C(=O)[C@H](CC(C)C)N(C)C1=O the data give PAMPA 6.9 × 10^-6 cm/s. CCCN1CC(=O)N[C@H](CC(C)C)C(=O)N(C)[C@@H](CC(C)C)C(=O)N2CCC[C@H]2C(=O)N(C)[C@H](CC(C)C)C(=O)N[C@@H](Cc2ccccc2)C(=O)N2CCC[C@H]2C1=O has PAMPA 3 × 10^-6 cm/s. The entry for CC(C)C[C@@H]1NC(=O)[C@H](CC(C)C)N(C)C(=O)[C@@H](C)NC(=O)[C@H](Cc2ccccc2)NC(=O)[C@@H](CC(C)C)NC(=O)[C@@H]2CCCN2C1=O lists PAMPA 1.5 × 10^-6 cm/s.

CC(C)C[C@@H]1NC(=O)[C@@H](C)N(C)C(=O)[C@H](Cc2ccccc2)NC(=O)[C@@H](CC(C)C)NC(=O)[C@H]2CCCN2C(=O)[C@@H](CC(C)C)N(C)C1=O is reported with PAMPA 5.6 × 10^-6 cm/s.